Data on one compound can be found in PMC2914686 (Chemistry & biology, 2010).

The test addresses T1, G9a (Homo sapiens, UniProt Q96KQ7).
T1 sequence (Q96KQ7 913-1193): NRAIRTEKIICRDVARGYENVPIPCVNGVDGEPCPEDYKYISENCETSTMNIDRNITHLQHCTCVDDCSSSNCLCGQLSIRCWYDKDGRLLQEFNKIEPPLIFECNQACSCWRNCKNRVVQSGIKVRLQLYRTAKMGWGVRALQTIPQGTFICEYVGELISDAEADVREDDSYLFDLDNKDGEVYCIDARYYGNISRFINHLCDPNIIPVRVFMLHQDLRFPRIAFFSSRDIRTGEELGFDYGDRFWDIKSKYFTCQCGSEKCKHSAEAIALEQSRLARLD
The test is described as follows: Endo-LysC-coupled microfluidic capillary electrophoresis methyltransferase assay. It is filed as biochemical.

In the case of `COc1cc2c(NC3CCN(C)CC3)nc(N3CCCN(C)CC3)nc2cc1OCCCN(C)C` [UNC0224], the Ki was 1.6 nM.
